Several values for one entry are separate records, joined by “and”; a condition that tells them apart may be missing. Equal entries are not always repeated.
Key:
[1] = target: SERCA2a-PLB complex (GFP-SERCA2a / RFP-PLB in HEK293 cells) (Homo sapiens, UniProt P16615+P26678, C36A/C41F/C46A); assay: SERCA2a-PLB TR-FRET (fluorescence lifetime) biosensor assay in living cells; type: cell-based; design: expressed in transfected cells; host or cells: HEK293
[2] = target: T1, cardiac SR (SERCA2a + PLB) (Sus scrofa, UniProt P11607); assay: Ca-ATPase activity of cardiac SR (CSR), NADH-linked enzyme-coupled assay; type: biochemical, pig; design: pKCa @30 µM: unit not given here
T1 construct: Cardiac SR membrane vesicles were isolated from ventricular myocardium obtained from fresh pig hearts; from tissue; host or cells: pig ventricular myocardium, SR membrane vesicles
Experimental: To characterize the relationship between the structural readout (FRET) and the functional effects, in vitro Ca-ATPase assays were performed on cardiac SR (which contains both SERCA2a and PLB). […] To further examine the functional effects of Hit compounds, Ca-ATPase assays were performed on both skeletal SR (SERCA1a only) and cardiac SR (SERCA2a + PLB) at a series of Ca concentrations ranging from pCa 5 to 8.
Skeletal muscle SR membrane vesicles were isolated from longissimus dorsi obtained from New Zealand white rabbits, as previously described. Cardiac SR membrane vesicles were isolated from ventricular myocardium obtained from fresh pig hearts. All experimental protocols were reviewed and approved by University of Minnesota’s Institutional Animal Care and Use Committee, an Association for Assessment and Accreditation of Laboratory Animal Care institution.
An enzyme-coupled, NADH-linked ATPase assay was used to measure SERCA ATPase activity in 96-well microplates. Each well contained 0.8 μg (skeletal) or 2 μg (cardiac) of SR vesicles adjusted for the different SERCA contents of skeletal and cardiac SR, 50 mM MOPS (pH 7.0), 100 mM KCl, 5 mM MgCl2, 1 mM EGTA, 0.2 mM NADH, 1 mM phosphoenol pyruvate, 10 IU/mL of pyruvate kinase, 10 IU/mL of lactate dehydrogenase, 3.5 μg/mL of the Ca ionophore A23187, and CaCl2 added to set free [Ca] to the desired values. The assay was started upon the addition of ATP at a final concentration of 5 mM and read in a SpectraMax Plus microplate spectrophotometer rom Molecular Devices (Sunnyvale, CA).

The chains behind the UniProt entries cited, without tags or fusion partners. Residues count along the entry.
UniProt P16615, 1-997 isoform P16615-2, stated change not applied: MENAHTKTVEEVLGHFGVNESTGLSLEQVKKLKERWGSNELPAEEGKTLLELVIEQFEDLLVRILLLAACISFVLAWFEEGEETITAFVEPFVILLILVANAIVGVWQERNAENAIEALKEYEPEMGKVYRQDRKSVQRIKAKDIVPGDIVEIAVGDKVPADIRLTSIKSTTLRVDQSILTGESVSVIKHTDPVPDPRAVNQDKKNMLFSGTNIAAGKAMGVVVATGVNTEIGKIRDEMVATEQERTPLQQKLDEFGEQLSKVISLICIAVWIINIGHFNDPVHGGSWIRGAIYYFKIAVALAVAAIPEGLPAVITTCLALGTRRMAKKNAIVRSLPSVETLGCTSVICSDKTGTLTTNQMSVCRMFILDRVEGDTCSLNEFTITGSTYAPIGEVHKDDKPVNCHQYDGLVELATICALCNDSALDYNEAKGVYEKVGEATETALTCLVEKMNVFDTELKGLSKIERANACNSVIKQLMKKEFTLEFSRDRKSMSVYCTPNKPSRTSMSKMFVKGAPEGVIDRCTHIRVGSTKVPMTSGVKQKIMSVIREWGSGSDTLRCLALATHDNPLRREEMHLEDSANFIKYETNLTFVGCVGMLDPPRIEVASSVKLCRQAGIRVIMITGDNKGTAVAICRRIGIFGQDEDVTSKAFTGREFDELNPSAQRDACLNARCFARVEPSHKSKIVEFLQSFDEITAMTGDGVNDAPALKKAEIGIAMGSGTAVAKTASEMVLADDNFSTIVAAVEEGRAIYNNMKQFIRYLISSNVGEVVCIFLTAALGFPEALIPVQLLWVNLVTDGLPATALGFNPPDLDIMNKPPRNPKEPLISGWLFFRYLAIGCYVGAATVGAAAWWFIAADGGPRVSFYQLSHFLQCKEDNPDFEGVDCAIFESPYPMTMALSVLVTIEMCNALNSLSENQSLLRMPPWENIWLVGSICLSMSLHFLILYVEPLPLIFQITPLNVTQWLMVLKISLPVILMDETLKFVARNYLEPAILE
UniProt P26678, whole entry C36A/C41F/C46A: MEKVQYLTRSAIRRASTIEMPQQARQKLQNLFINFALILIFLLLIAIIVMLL
UniProt P11607, 1-997 isoform P11607-2: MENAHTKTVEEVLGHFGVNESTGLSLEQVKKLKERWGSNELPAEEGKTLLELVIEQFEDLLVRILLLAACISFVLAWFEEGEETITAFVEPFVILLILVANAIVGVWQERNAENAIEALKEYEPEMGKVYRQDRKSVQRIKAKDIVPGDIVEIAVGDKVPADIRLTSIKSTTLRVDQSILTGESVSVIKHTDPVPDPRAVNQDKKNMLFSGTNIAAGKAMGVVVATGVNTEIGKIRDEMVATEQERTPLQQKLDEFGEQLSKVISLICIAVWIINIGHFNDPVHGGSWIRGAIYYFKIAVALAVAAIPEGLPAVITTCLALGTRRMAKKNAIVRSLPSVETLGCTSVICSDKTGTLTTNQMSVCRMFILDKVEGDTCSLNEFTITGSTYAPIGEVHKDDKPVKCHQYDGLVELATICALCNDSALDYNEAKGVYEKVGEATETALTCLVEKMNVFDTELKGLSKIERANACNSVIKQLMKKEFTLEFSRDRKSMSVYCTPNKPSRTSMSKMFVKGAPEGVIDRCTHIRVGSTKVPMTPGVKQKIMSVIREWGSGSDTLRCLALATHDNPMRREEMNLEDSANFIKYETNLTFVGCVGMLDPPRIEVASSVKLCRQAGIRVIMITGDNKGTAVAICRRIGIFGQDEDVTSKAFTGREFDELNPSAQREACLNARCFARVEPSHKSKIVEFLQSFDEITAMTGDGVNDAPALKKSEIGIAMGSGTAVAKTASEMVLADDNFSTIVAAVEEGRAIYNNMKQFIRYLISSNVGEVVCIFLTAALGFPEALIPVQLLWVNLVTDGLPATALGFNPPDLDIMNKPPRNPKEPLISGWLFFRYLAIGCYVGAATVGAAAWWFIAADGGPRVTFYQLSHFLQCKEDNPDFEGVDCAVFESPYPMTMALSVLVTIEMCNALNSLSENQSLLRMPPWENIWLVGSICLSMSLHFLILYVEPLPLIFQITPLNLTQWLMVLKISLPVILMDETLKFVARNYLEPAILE

Ivermectin
EC50 [1]: 5.9 µM
direction of FRET change of the SERCA2a-PLB biosensor [1]: decrease in FRET
ΔFLT [1]: 53 ps and 56 ps
EC50 [2]: 6.2 µM
Vmax @ 30 µM [2]: 0.15 i.u.
decrease of Vmax [2]: 78%
pKCa @30 µM [2]: 6.10
ΔVmax @ 30 µM [2]: -77.9%
